For this series the following is noted: half-life period of decomposition 10 hours; 0,1 M solution in chlorobenzene.

Take “0-allyl 0,0-(2-methyl-3-buten-2-yl) monoperoxycarbonate”: the “Temperature (°C) for t½ of 10 hours” value came to 67 °C.
As for “0-isopropyl 0,0-(2-methyl-3-buten-2-yl) monoperoxycarbonate”, the “Temperature (°C) for t½ of 10 hours” value was 76 °C.
The result for “0-(2-ethylhexyl) 0,0-(2-methyl-3-buten-2-yl) monoperoxycarbonate” reads 75 °C.
Turning to `C=CC(C)(C)OOC(C)(C)C=C`, the “Temperature (°C) for t½ of 10 hours” value stood at 107 °C.
With “0-(n-octyl) 0,0-(2-methyl-3-buten-2-yl) monoperoxycarbonate” the figure was 80 °C.
Consider `C=CC(C)(C)OOC(=O)OCCOCCOC(=O)OOC(C)(C)C=C`, for which the “Temperature (°C) for t½ of 10 hours” value is 72 °C.
In the case of `C=CC(C)(C)OOC(C)(C)c1ccc(C(=C)C)cc1`, the “Temperature (°C) for t½ of 10 hours” value worked out at 114 °C.
Turning to “0-(n-hexadecyl) 0,0-(2-methyl-3-buten-2-yl) monoperoxycarbonate”, the “Temperature (°C) for t½ of 10 hours” value worked out at 64 °C.
The result for “0-(4-t-butylcyclohexyl) 0,0-(2-methyl-3-buten-2-yl) monoperoxycarbonate” reads 76 °C.
With `C=CC(C)(C)OOC(=O)OCCCCCCOC(=O)OOC(C)(C)C=C` the figure was 94 °C; with `C=CC(C)(C)OOC1(OOC(C)(C)C=C)CCCCC1`, 74 °C.
On to `C=CC(C)(C)OOC(C)(C)C`, for which the “Temperature (°C) for t½ of 10 hours” value was 110 °C.

The record behind these values is patent EP0273990B1, “Novel organic peroxides and their use in the preparation of epoxide groups containing (co)polymers” (AKZO N.V., priority 1986, dated 1988).
